According to patent publication US20170143844A1, “Composition and Methods of Use of Nano Anti-Radical Therapeutics To Inhibit Cancer” (AntiRadical Therapeutics LLC, priority 2015, published 2017):

Assays:
4T1 cells = test: Cellular ROS levels by DCF staining and flow cytometry; assay type: cell-based, mouse; settings: different concentrations, DCF mean fluorescence intensity (FIG. 2)
Procedure: FIG. 2. Effects of MCFRN-HSA on cellular ROS levels. 4T1 cells were treated with MCFRN-HSA as indicated, stained with DCF and analyzed by flow cytometry. Mean fluorescence intensity is shown. Lower fluorescence indicates lower ROS levels.
Reference is now made to FIG. 2. Since the known activity of MCFRN-HSA is the ability to act as a superoxide dismutase mimetic and catalytic agent for ROS removal, we examined its effects on cancer cell ROS levels. Cells were treated with different concentrations of MCFRN-HSA and then cellular ROS levels were estimated by staining with 2′,7′-dichlorodihydro-fluorescein diacetate (DCF) followed by flow cytometry (FIG. 2).

MLM3 = test: Proliferation of HNSCC cell line MLM3 (colony forming assays and direct cell counting); assay type: cell-based; settings: results not shown
Procedure: (§1) We have studied the MCFRN-HSA inhibition of proliferation in head and neck squamous cell carcinoma (HNSCC) cell lines, mEER and MLM3 and have obtained similar results as shown in that of FIG. 1-3 (not shown). MLM3 is of special interest because it is resistant to cisplatin and radiation therapy (CRT) and forms highly metastatic tumors in vivo. The cell lines were analyzed against the effect of CRT treatment, MCFRN-HSA was titrated across the same dose ranges and cell proliferation and survival determined by colony forming assays and direct cell counting as described above. […] Like TNBC, HNSCC has a high incidence rate with nearly 600,000 cases annually worldwide. The incidence of HPV+ HNSCC is increasing and is associated with severe comorbidities. About ˜10% of these cases are resistant to standard therapies, develop metastases, and is an incurable disease. Our results would indicate that MCFRN-HSA is such a potentially new and better treatments for this HNSCC patients.

hemorrhagic stroke = test: Intrathecal injection in rat model of hemorrhagic stroke; assay type: in vivo; settings: IT injection in the cerebral spinal fluid
4T1 tumors = test: Blood flow in 4T1 tumors by microbubble ultrasound; assay type: in vivo, Balb/c mice
Procedure: FIG. 4. Measurement of blood flow in 4T1 tumors in mice. Tumor bearing animals were injected with microbubbles and then with MCFRN-HSA and time of tumor perfusion was measured by ultrasound. Lower time is indicative of faster blood flow through tumor.
Reference is now made to FIG. 4: Measurement of blood flow in 4T1 tumors in mice. Tumor bearing animals were injected with microbubbles and then with HAS or MCFRN-HSA and time of tumor perfusion was measured by ultrasound. Lower time is indicative of faster blood flow through tumor.
Specifically, we have tested the effects of MCFRN-HSA on blood flow, Balb/c mice were injected with 4T1 breast cancer cells and tumors were allowed to develop for 8 days. Then tumor diffusion time was analyzed by ultrasound. For this, microbubbles were injected through the tail vein, and a baseline reading of tumor perfusion was obtained. This was followed by MCFRN-HSA or vehicle injection and a second reading of tumor perfusion time. Tumor perfusion was calculated by taking the 30 minute perfusion time minus the baseline time. A shorter time indicates greater perfusion of blood through the tumor.

mEER = test: Proliferation of HNSCC cell line mEER (colony forming assays and direct cell counting); assay type: cell-based; settings: results not shown
Procedure: as §1

4T1 breast cancer cells = test: Colony forming assay in 4T1 cultures; assay type: cell-based, mouse
Procedure: FIG. 1. Colony forming assays in MCFRN-HSA treated 4T1 cultures. Cells were plated at low density and then treated with the indicated concentration of MCFRN-HSA as a control. Colonies were stained and counted (A) or measured for size (B).
In this study, a TNBC modeling 4T1 breast cancer cells were plated at low density and incubated for 1 week to allow them to form colonies. The cells were treated with a range of MCFRN-HSA concentrations (FIG. 1) and control cells were left untreated or treated with the same concentrations of human serum albumin (HSA).

4T1 mammary tumors = assay type: in vivo
brain cancer = test: Mouse model of brain cancer; assay type: in vivo; settings: administered through IP, results not shown
cyclin D1 = test: Cyclin D1 expression by western blotting in 4T1 cells; assay type: cell-based, mouse; settings: treated 4T1 cells, western blotting (FIG. 3)
Procedure: FIG. 3. Expression of cyclin D1 in MCFRN-HSA treated 4T1 cells. Cultured 4T1 cells were treated with MCFRN-HSA as indicated and then harvested for western blotting.
Reference is now made to FIG. 3. As an extension of our work showing that MCFRN-HSA inhibits cancer cell proliferation we examined a variety of cell cycle regulatory proteins. […] In summary, MCFRN-HSA appears to have direct effects on cancer cell proliferation. This is associated with reduced cellular ROS levels and the downregulation cyclin D1.

## MCFRN-HSA: Multiple Catalytic Free Radical Nitroxides carried on Human Serum Albumin; HSA covalently labelled with BrAcTPO, 40-60 nitroxides per molecule
4T1 cells
  cellular ROS levels: dose dependent decrease
MLM3; MLM3 (resistant to CRT), versus cisplatin and radiation therapy
  anti-proliferation efficacy compared with CRT: by far more superior than CRT
MLM3; MLM3 HNSCC cell line
  inhibition of proliferation: efficacious in inhibiting the proliferation
Hemorrhagic stroke
  safety and efficacy of intrathecal injection: safe and effective
4T1 tumors; 4T1 tumors in Balb/c mice
  blood flow to tumors: significantly increases blood flow
4T1 tumors; 30 minute perfusion time minus baseline, tumors 8 days, versus vehicle (FIG. 4)
  tumor perfusion time: shorter than in vehicle treated animals
mEER; mEER HNSCC cell line
  inhibition of proliferation: efficacious in inhibiting the proliferation
mEER; mEER, versus cisplatin and radiation therapy (CRT)
  anti-proliferation efficacy compared with CRT: by far more superior than CRT
4T1 breast cancer cells; 4T1 cells
  concentrations at which effects on cell proliferation are observed: low micromolar concentrations
4T1 breast cancer cells; 4T1 cells plated at low density, 1 week, compared to HSA treated cells (FIG. 1a)
  number of colonies formed: reduced the number of colonies formed
4T1 breast cancer cells; 4T1 cells plated at low density, 1 week, compared to HSA treated cells (FIG. 1b)
  colony size: reduced colony size
4T1 mammary tumors; flank 4T1 tumors, 1 mg/Kg 3 times per week from day 4, without Doxorubicin (FIG. 5a)
  lung metastatic nodules: robust decrease
4T1 mammary tumors; flank 4T1 tumors, with or without Doxorubicin
  growth of primary tumors: no significant difference
4T1 mammary tumors; in the presence of Doxorubicin (FIG. 5b)
  lung metastases: significant reduction
Brain cancer
  efficacy in treatment of brain cancer: efficacy in the treatment of mouse model of brain cancer
Cyclin D1
  cyclin D1 levels: decreased
